In PubChem BioAssay AID540299 (ICCB-Longwood Screening Facility, Harvard Medical School, 2011):
Only a part is listed here, and it is no random draw. The source made the active and inactive calls. Rule as the data show it: active = inhibition above about 21% (passing the limit was not always enough); inactive = the rest.

By UniProt entry, the sequences of proteins in these tests, tags left out.
UniProt P9WNP5, whole entry: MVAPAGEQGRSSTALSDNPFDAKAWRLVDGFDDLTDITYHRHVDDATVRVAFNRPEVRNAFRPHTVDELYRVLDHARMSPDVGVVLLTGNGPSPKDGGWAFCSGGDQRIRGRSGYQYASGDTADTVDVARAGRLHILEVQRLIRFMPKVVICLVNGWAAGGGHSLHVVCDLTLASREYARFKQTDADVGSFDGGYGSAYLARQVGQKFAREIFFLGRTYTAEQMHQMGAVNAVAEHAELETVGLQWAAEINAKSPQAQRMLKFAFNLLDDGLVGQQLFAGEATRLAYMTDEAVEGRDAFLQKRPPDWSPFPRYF

Target: 1,4-dihydroxy-2-naphthoyl-CoA synthase (Mycobacterium tuberculosis (strain ATCC 25618 / H37Rv)) (UniProt P9WNP5)
Experiment: M. tuberculosis MenB inhibitors, primary screen, biochemical, absorbance (AID 540299)
Details: MenB enzyme assay, absorbance read-out; active compounds read high; concentration not given here

Structure (SMILES)	inhibition
CN(CCCl)CCCl	inactive: 4.46%
